Active and inactive are the calls of the source. The rule behind the calls is not given here.
Target: T1, NAD-dependent protein deacetylase sirtuin-2 (Homo sapiens) (UniProt Q8IXJ6)
T1 sequence (whole entry): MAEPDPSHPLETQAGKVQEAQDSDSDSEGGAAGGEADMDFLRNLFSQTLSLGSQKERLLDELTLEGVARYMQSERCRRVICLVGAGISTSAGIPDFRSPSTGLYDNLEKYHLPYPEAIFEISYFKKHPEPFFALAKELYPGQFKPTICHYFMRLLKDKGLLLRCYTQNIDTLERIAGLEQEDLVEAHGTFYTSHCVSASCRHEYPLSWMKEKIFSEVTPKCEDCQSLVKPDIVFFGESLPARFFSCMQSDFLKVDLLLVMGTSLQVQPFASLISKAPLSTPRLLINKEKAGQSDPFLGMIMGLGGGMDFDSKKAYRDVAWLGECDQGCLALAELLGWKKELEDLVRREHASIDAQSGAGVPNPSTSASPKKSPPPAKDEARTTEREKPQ
Assay: Inhibition of SIRT2 (unknown origin) using IU179 as substrate incubated for 30 mins by Fluor de Lys sirtuin assay relative to control

| SMILES | inhibition |
| --- | --- |
| Cc1cc(NC(=O)c2ccc(O)c(Cl)c2)ccc1N1CCCC1=O | inactive |
| Cc1noc(C)c1NC(=O)COc1ccc2c(c1)CCC(=O)N2 | inactive |
| CC(=O)c1c(C)[nH]c(C(=O)Nc2ccc3c(c2)CCO3)c1C | inactive |

Source: ChEMBL document CHEMBL5614425, “Novel inhibitors of bromodomain and extra-terminal domain trigger cell death in breast cancer cell lines” (2024)
